Consider 1 protein from article PMC8710044 (Biochemical pharmacology, 2021).

Substrate in the series: Cc1ccc(Cl)c(Nc2ccccc2C(=O)O)c1Cl
Briefly: cells, lysate or membranes named. The note with it: other: CYP2C19; metabolite M9, path 4; 95% CI in parentheses; pH 7.4.

B1: CYP2C19 (Homo sapiens) (protein)
chain: MDPFVVLVLCLSCLLLLSIWRQSSGRGKLPPGPTPLPVIGNILQIDIKDVSKSLTNLSKIYGPVFTLYFGLERMVVLHGYEVVKEALIDLGEEFSGRGHFPLAERANRGFGIVFSNGKRWKEIRRFSLMTLRNFGMGKRSIEDRVQEEARCLVEELRKTKASPCDPTFILGCAPCNVICSIIFQKRFDYKDQQFLNLMEKLNENIRIVSTPWIQICNNFPTIIDYFPGTHNKLLKNLAFMESDILEKVKEHQESMDINNPRDFIDCFLIKMEKEKQNQQSEFTIENLVITAADLLGAGTETTSTTLRYALLLLLKHPEVTAKVQEEIERVIGRNRSPCMQDRGHMPYTDAVVHEVQRYIDLIPTSLPHAVTCDVKFRNYLIPKGTTILTSLTSVLHDNKEFPNPEMFDPRHFLDEGGNFKKSNYFMPFSAGKRICVGEGLARMELFLFLTFILQNFNLKSLIDPKDLDTTPVVNGFASVPPFYQLCFIPV
The Km is the substrate concentration at which the rate is half of its maximum. Take B1: the Michaelis constant (Km) turned out to be 15.3 µM.
